One substance from patent publication US20220249564A1, “PDL1 POSITIVE NK CELL CANCER TREATMENT” (City of Hope, priority 2019, published 2022) can be followed below.

The assay has as its system PD-L1-KO K562 myeloid leukemia cells. Description: NSG mouse model with human primary NK cells and PD-L1-KO K562 cells. Format: in vivo, NSG mice. Conditions: every other day for two weeks; FIG. 5D. An excerpt:
FIGS. 5A-5D present data showing the effects of the anti-PD-L1 mAb AZ and/or NK-activating cytokines on anti-tumor efficacy in vivo. […] After 6 days, mice were sacrificed and NK cells were isolated and assessed for PD-L1 expression by flow cytometry. Representative figures and summary data are shown (n=5). […] PBS instead of IgG1 was used as placebo because AZ lacks antibody-dependent cellular cytotoxicity activity. After 6 days (three treatments), mice were sacrificed and human NK cells were examined for their expression of granzyme B, CD107α, and IFN-γ, while the number of PD-L1-knockout K562 myeloid leukemia cells (as shown in FIG. 5C) was enumerated by flow cytometry. Representative figures and summary data (n=5) are shown. […] Two paired groups were compared by paired t-test. One-way ANOVA with repeated measures or linear mixed model was used to compare three (3) or more donor-matched groups. P values were adjusted by the Holm-Sidak method. Kaplan-Meier method was used to estimate survival functions and log-rank test was applied to group comparisons.
8-week old NSG mice were intravenously (i.v.) injected with PD-L1 knockout K562 myeloid leukemia cells at a concentration of 2 million cells per mouse. […]

Regarding IL-2: NK cell-activating cytokine, the survival result is listed as “neither the in vivo administration of IL-2 alone had much effect on survival”.
